Key:
human NK1 receptor = human NK1 receptor (Homo sapiens, UniProt P25103); experiment: NK1 receptor binding, [3H]substance P displacement, CHO cell membranes
[1] = target: T1, Recombinant human NK3 (hNK3) receptor (Homo sapiens, UniProt P29371); experiment: NK3 receptor binding, [3H]SR142801 displacement, membrane preparations; conditions: second value of the cell pKi NK1/NK3
T1 construct: expressed in transfected cells
Method: Non specific binding was determined using 10 μM SB222200. Assay buffer consisted of Tris-HCl (50 mM, pH 7.4), BSA (0.1%), MnCl2 (4 mM) and phosphoramidon (1 μM). Membrane preparations of hNK3 receptors (approximately 2.5 μg/well in a 96 well plate) were used to initiate the incubation for 90 min at room temperature. This assay was terminated by rapid filtration under vacuum through GF/C filters, presoaked for 90 min with PEI (0.3%), with 3×0.5 ml washes of ice-cold Tris buffer (50 mM, pH 7.4) containing 0.1% BSA. The radioactivity retained on the filters was measured by scintillation counting. All assays were performed in duplicate in at least two separate experiments.

By UniProt entry, the sequences of proteins in these tests, tags left out.
UniProt P25103, whole entry: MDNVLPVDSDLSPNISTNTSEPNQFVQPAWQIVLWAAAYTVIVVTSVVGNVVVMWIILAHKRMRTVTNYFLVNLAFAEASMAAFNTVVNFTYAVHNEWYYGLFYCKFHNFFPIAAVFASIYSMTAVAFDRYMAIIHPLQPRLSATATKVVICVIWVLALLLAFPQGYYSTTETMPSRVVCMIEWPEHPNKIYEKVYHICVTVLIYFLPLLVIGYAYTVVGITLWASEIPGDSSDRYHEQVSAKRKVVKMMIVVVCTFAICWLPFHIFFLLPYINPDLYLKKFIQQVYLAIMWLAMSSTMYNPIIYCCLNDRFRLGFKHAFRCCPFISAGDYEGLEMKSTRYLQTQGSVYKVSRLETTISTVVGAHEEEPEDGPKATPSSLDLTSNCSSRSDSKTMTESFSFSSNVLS
UniProt P29371, whole entry: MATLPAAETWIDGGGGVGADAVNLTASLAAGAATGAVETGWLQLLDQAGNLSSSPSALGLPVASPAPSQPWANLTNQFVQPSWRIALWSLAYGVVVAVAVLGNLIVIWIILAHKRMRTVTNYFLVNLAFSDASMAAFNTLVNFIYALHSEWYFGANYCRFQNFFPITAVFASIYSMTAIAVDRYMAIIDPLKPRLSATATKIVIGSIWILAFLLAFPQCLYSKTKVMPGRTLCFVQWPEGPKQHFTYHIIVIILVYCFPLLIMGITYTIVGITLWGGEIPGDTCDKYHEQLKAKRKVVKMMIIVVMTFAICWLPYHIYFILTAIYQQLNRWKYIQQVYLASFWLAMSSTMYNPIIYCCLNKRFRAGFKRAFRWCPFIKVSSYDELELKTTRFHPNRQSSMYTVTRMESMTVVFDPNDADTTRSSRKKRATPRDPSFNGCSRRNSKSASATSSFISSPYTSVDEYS

Row | SMILES | Ki (human NK1 receptor) | pKi NK3 [1]
1 | CN(C(=O)C(C)(C)c1cc(C(F)(F)F)cc(C(F)(F)F)c1)c1cnc(N2C[C@H](O)C[C@@H]2CO)cc1-c1ccccc1Cl [Example 96, (2R,4R)-2-(3,5-Bis-trifluoromethyl-phenyl)-N-[4-(2-chloro-phenyl)-6-(4-hydroxy-2-hydroxymethyl-pyrrolidin-1-yl)-pyridin-3-yl]-N-methyl-isobutyramide] | 6.92 nM | 
2 | CN(C(=O)C(C)(C)c1cc(C(F)(F)F)cc(C(F)(F)F)c1)c1cnc(N2C[C@H](O)C[C@H]2CO)cc1-c1ccccc1Cl [Example 97, (2S,4R)-2-(3,5-Bis-trifluoromethyl-phenyl)-N-[4-(2-chloro-phenyl)-6-(4-hydroxy-2-hydroxymethyl-pyrrolidin-1-yl)-pyridin-3-yl]-N-methyl-isobutyramide] | 0.741 nM | 
3 | CN(C(=O)C(C)(C)c1cc(C(F)(F)F)cc(C(F)(F)F)c1)c1cnc(N2C[C@@H](O)C[C@@H]2CO)cc1-c1ccccc1Cl [Example 139, (2R,4S)-2-(3,5-Bis-trifluoromethyl-phenyl)-N-[4-(2-chloro-phenyl)-6-(4-hydroxy-2-hydroxymethyl-pyrrolidin-1-yl)-pyridin-3-yl]-N-methyl-isobutyramide] | 0.676 nM | 
4 | CN(C(=O)C(C)(C)c1cc(C(F)(F)F)cc(C(F)(F)F)c1)c1cnc(N2C[C@@H](O)C[C@H]2CO)cc1-c1ccccc1Cl [Example 140, (2S,4S)-2-(3,5-Bis-trifluoromethyl-phenyl)-N-[4-(2-chloro-phenyl)-6-(4-hydroxy-2-hydroxymethyl-pyrrolidin-1-yl)-pyridin-3-yl]-N-methyl-isobutyramide] | 0.776 nM | 9.11/8.83
